SMILES strings stand for the structures.

For this experiment, the target named is T1, Human recombinant PTP1B (Homo sapiens, UniProt P18031).
T1 construct: made in house
T1 sequence (P18031 1-435): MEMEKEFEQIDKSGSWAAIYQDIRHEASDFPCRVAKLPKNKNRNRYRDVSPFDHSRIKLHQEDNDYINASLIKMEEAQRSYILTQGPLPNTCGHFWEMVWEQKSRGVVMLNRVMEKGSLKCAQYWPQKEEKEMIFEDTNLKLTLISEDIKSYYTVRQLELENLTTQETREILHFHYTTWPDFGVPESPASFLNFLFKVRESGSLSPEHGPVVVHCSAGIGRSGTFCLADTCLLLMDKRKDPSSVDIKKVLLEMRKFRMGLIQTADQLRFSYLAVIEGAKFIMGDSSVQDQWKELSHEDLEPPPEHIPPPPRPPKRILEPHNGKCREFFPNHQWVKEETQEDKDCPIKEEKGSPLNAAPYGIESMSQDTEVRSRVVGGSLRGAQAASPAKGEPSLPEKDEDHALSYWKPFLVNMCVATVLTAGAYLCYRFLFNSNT
Description: Inhibition of tri-phosphorylated insulin receptor dodecaphosphopeptide dephosphorylation by hPTP1B (malachite green). In kind it is biochemical. The note with it: dodecaphosphopeptide substrate.
On to `O=C(O)C(Cc1ccccc1)Oc1ccc(-c2ccc(-c3c(Cc4ccccc4)sc4ccccc34)cc2)cc1` (stereo not drawn) [Example 13, 2-[4'-(2-Benzyl-benzo[b]thiophen-3-yl)-biphenyl-4-yloxy]-3-phenyl-propionic acid], for which the IC50 is 95 nM.

Consider `COc1ccc(Cc2sc3ccccc3c2-c2ccc(-c3ccc(O[C@H](Cc4ccccc4)C(=O)O)cc3)cc2)cc1` [Example 20], for which the IC50 is 77 nM.

`O=C(c1ccccc1)c1oc2ccccc2c1-c1ccc(-c2ccc(OC(Cc3ccccc3)C(=O)O)cc2)cc1` (stereo not drawn) [Example 14]: the IC50 was 680 nM.

What is called IC50 is the concentration needed to halve the response being measured.

For the origin of these results see patent EP1077967B1, “BIPHENYL OXO-ACETIC ACIDS USEFUL IN THE TREATMENT OF INSULIN RESISTANCE AND HYPERGLYCEMIA” (Wyeth, priority 1998, dated 1999).
